Values quoted from earlier work in patent US10172581B2, “Methods of assessing tumor growth” (Dana-Farber Cancer Institute, Inc., priority 2013, dated 2019).

Tested on: ALK-positive NSCLC
Settings: ALK-positive NSCLC patients, trials; cited from earlier work

In the case of `C[C@@H](Oc1cc(-c2cnn(C3CCNCC3)c2)cnc1N)c1c(Cl)ccc(F)c1Cl` [crizotinib], the “overall disease control rate” value is listed as ~90%, the progression-free survival is listed as 10 months and the response rate is listed as “up to 61%”.
